Literature values in patent US9149532B2, “Pharmaceutical composition” (DAIICHI SANKYO COMPANY, LIMITED, priority 2007, dated 2015).

Chains of the proteins cited; added tags and fusions are not shown. Residues count along the entry.
UniProt P00742, 41-179 partner limits assumed: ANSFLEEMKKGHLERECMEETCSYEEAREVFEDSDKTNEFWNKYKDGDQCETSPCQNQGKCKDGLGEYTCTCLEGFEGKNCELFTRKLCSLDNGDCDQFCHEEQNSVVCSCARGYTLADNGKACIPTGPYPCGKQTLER
UniProt P00742, 235-488 limits assumed: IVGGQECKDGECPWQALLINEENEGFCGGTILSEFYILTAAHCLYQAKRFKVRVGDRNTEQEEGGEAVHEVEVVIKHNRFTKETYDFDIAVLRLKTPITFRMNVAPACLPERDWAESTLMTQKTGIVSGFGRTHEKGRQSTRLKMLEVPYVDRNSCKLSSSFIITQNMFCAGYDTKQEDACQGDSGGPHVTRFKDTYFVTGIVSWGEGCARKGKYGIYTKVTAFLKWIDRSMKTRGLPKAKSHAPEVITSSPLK

Target: activated blood coagulation factor X (Homo sapiens, UniProt P00742)
Details: known from Patent Documents 1 to 4; cited from earlier work

## CN1CCc2nc(C(=O)N[C@@H]3C[C@@H](C(=O)N(C)C)CC[C@@H]3NC(=O)C(=O)Nc3ccc(Cl)cn3)sc2C1 [compound (1), N^1-(5-chloropyridin-2-yl)-N^2-(4-[(dimethylamino)carbonyl]-2-{[(5-methyl-4,5,6,7-tetrahydrothiazolo[5,4-c]pyridin-2-yl)carbonyl]amino}cyclohexyl)ethanediamide]
  inhibitory action on activated blood coagulation factor X: potent inhibitory action
